## AlphaSeq binding of Ab-14 light chain variants to a spike HR2 peptide

Target: peptide PDVDLGDISGINAS, taken from heptad repeat 2 (HR2) of SARS-CoV-2 spike.

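Phage display of a naive human antibody library on the peptide gave the parent. This is the validation round: designs drawn from the data on random variants, tested in the same kind of assay. Group labels follow the data file (Ctrl: baseline library sampled from a position-specific scoring matrix, with some repeated check sequences; Rand: our label for a block that the file lists under HC and that is probably the random mutants of the ten best first-round binders; En: ensemble of fine-tuned language models; GP: Gaussian process model; HC: hill climbing; Gen: genetic algorithm; Gibbs: Gibbs sampling; a sequence that several methods proposed may carry one label only). The assay is AlphaSeq: two haploid yeast populations carry antibody and antigen on their surface. After mating in shaken culture at 30 °C for 16 h, diploids were selected and their barcode pairs sequenced. Each replicate has its own calibration line, from reference interactions of the BCL2 family. Mating was done six times.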

Each scFv is VH, a 15-residue (Gly4Ser)3 linker, VL, as in the parent Ab-14, and differs from it in the CDRs of the light chain only.
VH: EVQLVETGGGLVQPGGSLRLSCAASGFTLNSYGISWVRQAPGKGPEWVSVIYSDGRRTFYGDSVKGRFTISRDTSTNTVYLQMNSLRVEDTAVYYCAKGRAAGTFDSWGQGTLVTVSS
VL: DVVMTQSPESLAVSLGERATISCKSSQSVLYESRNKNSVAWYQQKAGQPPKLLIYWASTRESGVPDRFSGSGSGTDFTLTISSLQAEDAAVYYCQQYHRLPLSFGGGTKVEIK

Each variant is given by its three light chain CDRs, as the data file delimits them; those of the parent are KSSQSVLYESRNKNSVA, WASTRES, QQYHRLPLS.
Scale: log10 of Kd in nM, estimated from mating counts; low values are strong binders.
Replicates are averaged; those with no signal do not enter the mean.
An entry "nd" has no value in the source: the pair was not observed among the diploids in any replicate. This suggests poor binding but is not conclusive.
The parent sequence was in this pool as ten entries: three were never detected, three once, and four in most replicates, with averages from 0.34 to 2.37.
The range of this assay differs from that of the first round, and the authors advise against merging the two.
Background: pairings of all light chain designs with three empty control strains gave a value in 4% of cases (median 2.64, 5th percentile 1.59). Values in that range, when seen in few replicates, are hard to tell from nonspecific mating. For each scFv, signals with the empty controls are counted beside the result.
In the paper, a design with two or fewer of six values counts as a poor binder.

CDR-L1,CDR-L2,CDR-L3,group,"mean, log10 nM",detected,control signals
KSSQSVLYESKNKNSVA,KAHTRMS,QQCHRLPLS,Ctrl,3.21,5 of 6,1 of 18
KVSEFMKGLMMRTDSIA,DNNTRGS,QQYDRLPLS,En_Gen,1.35,6 of 6,1 of 18
TISQITSLFTQNINNVA,EVSTRCN,QQYDRLPLS,En_Gen,1.07,6 of 6,2 of 18
KLSQSVLYESRNKNSVA,EASTRES,QSYHRLPLS,GP_Gen,-0.38,6 of 6,1 of 18
KLSEFAHFESRKKNSVA,ENSTRES,QQYDHLPLS,En_HC,1.66,5 of 6,1 of 18
MLSDLVKLGSRNTNSVA,DNSTRGS,QQYDRLPLS,En_HC,2.10,6 of 6,4 of 18
WLNIEDQGDDRGMNNIA,GGDTKMA,QQYHRLPLS,En_Gibbs,1.00,6 of 6,2 of 18
MIHEMMGLMSHKNSSIA,DNSTRED,QQYDRLPLS,En_Gen,2.69,1 of 6,0 of 18
TISMSMNWLNRNKNSIA,EESTRED,QQYDRLPLS,En_HC,0.22,3 of 6,0 of 18
KQSQAFLNESRNKNSVA,DASTRES,QQYHRLPLS,GP_HC,0.76,6 of 6,0 of 18
HLSDSVLYESRNKNSVA,NASTRES,QQYHRLPLN,GP_HC,0.02,6 of 6,0 of 18
KLSQSDLYESRNKNAVA,EASTRES,QQYHRLPLS,GP_Gen,-0.55,6 of 6,1 of 18
KISGYLNKESKNKNSVA,EMVNREE,QQYDRLPLS,En_HC,0.82,6 of 6,0 of 18
TISQTAQQESHNKNSVA,DLSVRGS,QQYDRLPLS,En_HC,0.14,6 of 6,0 of 18
HISQYVGMTSRNKNSVA,ENSTRED,QQYDRLPLS,En_HC,2.09,5 of 6,0 of 18
KSSQSVLYESRNKNSVA,DGSTRES,QQYHRLALF,Ctrl,2.49,4 of 6,0 of 18
IIAENSDDLTEKLNSIA,ETSQVTQ,QQYHLLPLA,En_Gibbs,nd,0 of 6,0 of 18
KWSQEVDLESRNDNSVA,NASCRED,QQYHRLPLS,GP_Gibbs,1.04,6 of 6,0 of 18
KSSQSVLMESRNKNSVA,DASTRES,QTYHRLPLS,Ctrl,0.12,6 of 6,0 of 18
KLSQSHLYESRNKNAVA,NASQRES,QQYHRLPLS,GP_Gen,-0.47,6 of 6,1 of 18
KSSQSVLYESTNKNSVA,WASTRES,KQYHRLPLS,Ctrl,nd,0 of 6,1 of 18
KLQQSNWYESRNKNSVA,DASVRES,QQYHRLPLS,GP_Gibbs,-0.19,6 of 6,1 of 18
KVSQSVLYESRNKNSVA,NGSTRES,QQYHRLPLS,GP_Gen,-0.20,6 of 6,0 of 18
TLMHHQDRYDNWKKSIA,EAIIRES,QQYQRLPLA,En_Gibbs,2.17,2 of 6,2 of 18

Continued, with the values leading:

"mean, log10 nM",detected,control signals,CDR-L1,CDR-L2,CDR-L3,group
0.18,6 of 6,0 of 18,RLSQSVLYEERNDNSVA,NASTRCS,QQYHRLPLS,GP_Gibbs
1.71,6 of 6,1 of 18,KIGQMVTGESHNKNSIA,QMTTREG,QQYHRLPLS,En_HC
0.69,6 of 6,1 of 18,KSSQSVLYESRNKNSVA,GASTRES,QQYNRLPLK,Ctrl
-0.28,6 of 6,2 of 18,KLKQSWLYESRNKNSVA,NASQRES,QQYHRLPLS,GP_Gen
0.00,6 of 6,0 of 18,KLSQLVLMESRNHNSVA,SANTREE,QQYHRLPLS,GP_Gibbs
0.34,6 of 6,1 of 18,KISQSVLMEWRNKNSVA,SASTRES,QQYHRLPLS,GP_HC
0.47,6 of 6,2 of 18,QIYQAMHTLMQATNNVA,DVTNRNN,QQYHRLPLS,En_Gen
0.11,6 of 6,1 of 18,KVPGEQGYESRNKASVA,EASTRES,QQYHRLPLS,GP_Gibbs
-0.23,6 of 6,1 of 18,KSPQSVLYESRNKNSVA,DASTRVS,QQYHRLPLS,Ctrl
-0.18,6 of 6,2 of 18,TLSDLMYMESRNANSVA,DLVKRES,QQYHRLPLS,En_HC
0.77,6 of 6,2 of 18,KLRQSTLYESRNKNSVA,NASTRES,QQYHRLHLS,GP_HC
1.15,6 of 6,0 of 18,HISYSMAHLSRNKNSVA,NQQTREE,QQYHRLPLS,En_HC
1.28,2 of 6,0 of 18,TISTSALYESTNKNSVA,ELTTRGS,QQYERLPLS,En_HC
-0.51,6 of 6,0 of 18,KLSQSVLYESRNKNAVA,EASTRES,QQYHRLPLS,GP_Gen
nd,0 of 6,0 of 18,ALQMETLGQKQKQNNIA,NDQMSTA,QQYYMLPLS,En_Gibbs
-0.19,6 of 6,0 of 18,KLQQQDEYESRNKNSVA,NASTRWQ,QQYHRLPLS,GP_Gibbs
0.09,6 of 6,2 of 18,KLSQSDGYEARNSNSVA,HASTRED,QQYHRLPLS,GP_Gibbs
-0.52,6 of 6,1 of 18,KCAQWVDYGSRNKNSVA,DASTREQ,QQYHRLPLS,GP_Gibbs
-0.44,6 of 6,0 of 18,KLSESWLYESRNKNNVA,NASTRES,QQYHRLPLS,GP_Gen
1.00,5 of 6,0 of 18,KSSISYLPEYRNKDSVA,EASTRES,QQYHRLPLS,Rand
-0.27,6 of 6,2 of 18,KFSQSWLYESRNKNSVA,NASTRMS,QQYHRLPLS,GP_Gen
-0.02,6 of 6,4 of 18,ILSDSVLQLSRNKNSVA,DNSTRES,QQYDRLPLS,En_HC
2.17,5 of 6,1 of 18,MISNVMNTLTRYGNNVA,DLTERER,QQYFRLPLS,En_Gen
nd,0 of 6,0 of 18,KSSQNVLSESRNKNSVA,WASTRES,QQPHRLPLS,Ctrl

Again, the first 3 entries without any signal:

CDR-L1,CDR-L2,CDR-L3,group,"mean, log10 nM",detected,control signals
IIAENSDDLTEKLNSIA,ETSQVTQ,QQYHLLPLA,En_Gibbs,nd,0 of 6,0 of 18
KSSQSVLYESTNKNSVA,WASTRES,KQYHRLPLS,Ctrl,nd,0 of 6,1 of 18
ALQMETLGQKQKQNNIA,NDQMSTA,QQYYMLPLS,En_Gibbs,nd,0 of 6,0 of 18

Data: MIT Lincoln Laboratory AlphaSeq set, Li et al. 2023, doi:10.1038/s41467-023-39022-2, as distributed in FLAb.